Source: patent US9995740B2, “Method of determining temperature and method of detecting a target peptide” (SYSMEX CORPORATION, priority 2015, dated 2018)

Assay: Isoelectric point (pI) of the peptides of Table 3
Type: physicochemical

With “RSA21: SEQ ID NO: 3, 18 amino acid residues (RLIEDICLPRWGCLWEDD; Synthetic sequence of RSA21)” the pI was 4.1.
